The values below come from US5849525A, “Compositions corresponding to a proton-coupled peptide transporter and methods of making and using same” (Brigham and Women's Hospital, Inc., priority 1995, dated 1998).

Molecules are shown by their SMILES.

The test concerns the target T1, proton-coupled peptide transporter (Oryctolagus cuniculus, UniProt P36836).
T1 construct: Xenopus laevis oocytes were injected with cRNA coding the proton-coupled peptide transporter; expressed in transfected cells; host or cells: Xenopus laevis oocytes injected with cRNA transcribed in vitro from the cloned cDNA
T1 sequence (P36836 1-707): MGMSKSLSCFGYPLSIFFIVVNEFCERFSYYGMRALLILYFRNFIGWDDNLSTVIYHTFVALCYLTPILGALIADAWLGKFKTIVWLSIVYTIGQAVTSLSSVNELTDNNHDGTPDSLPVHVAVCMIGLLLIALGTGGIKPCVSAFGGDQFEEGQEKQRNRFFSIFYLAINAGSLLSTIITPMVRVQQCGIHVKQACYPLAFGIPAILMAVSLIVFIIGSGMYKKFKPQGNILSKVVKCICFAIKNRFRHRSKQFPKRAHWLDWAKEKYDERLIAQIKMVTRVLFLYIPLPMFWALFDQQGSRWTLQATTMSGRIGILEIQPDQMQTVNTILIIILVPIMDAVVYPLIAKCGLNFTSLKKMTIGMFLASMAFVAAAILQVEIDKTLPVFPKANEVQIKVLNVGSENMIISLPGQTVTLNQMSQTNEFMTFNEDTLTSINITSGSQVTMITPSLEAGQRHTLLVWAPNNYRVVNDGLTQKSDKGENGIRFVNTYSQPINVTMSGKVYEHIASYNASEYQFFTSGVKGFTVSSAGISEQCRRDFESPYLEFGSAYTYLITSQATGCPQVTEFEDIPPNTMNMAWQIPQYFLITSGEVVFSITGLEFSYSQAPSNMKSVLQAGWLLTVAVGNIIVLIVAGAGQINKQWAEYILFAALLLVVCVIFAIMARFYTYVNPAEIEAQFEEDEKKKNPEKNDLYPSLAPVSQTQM
As to the kind of experiment: Two-electrode voltage clamp of Xenopus laevis oocytes injected with transporter cRNA: substrate-evoked inward currents and Km. In kind it is cell-based, rabbit. As to conditions: uptake solution pH 5.5. The text has this:
These oocytes were subjected to two electrode voltages clamp analysis (Gene Clamp 500, Axon Instruments, California) in the manner described in Kanaisy & Hediger, M. A. Nature 360, 467-71 (1992).
FIG. 9 depicts electrophysiological measurements of transformed cocytes as a percent of glycyl-sarcosine evoked current. Data representing glycyl-sarcosine are depicted as a solid black bar. Data representing peptide are depicted with dotted bars. Data representing antibiotics are depicted with hatched bars.
By altering peptide concentrations, current amplitudes for different compositions, Km values were determined.
(In general: Two-electrode voltage clamp is typically applied to oocytes expressing channels or transporters.)

On to `C[C@H](N)C(=O)N1CCC[C@H]1C(=O)NCC(=O)O` [alanylprolinyl-glycine], for which the substrate-evoked inward current result is on record as “inward current”.
